Data on 1 substance can be found in patent US7029695B2, “Therapeutic compositions containing glutathione analogs” (Telik, Inc., priority 2001, dated 2006).

Data set [1] in a line: Measured characteristics of lipid microspheres (particle size, incorporation). The class given is physicochemical. Conditions: lipid microsphere emulsion after 1.2 μm filter, 300 μg/mL. An excerpt: The product is then further emulsified by means of a manton gaulin type homogenizer.
The conditions of data set [2]: drug/lipid 0.25, EPC/EPG (1/1), sucrose 300 mM.

Read-outs that look alike come from different tables or passages of the source.

Turning to “γ-Glutamyl-S(benzyl)cysteinyl-R-phenyl glycine diethyl ester hydrochloride [Compound 9]”, the “particle size of final emulsion” value in data set [1] is reported as “approximately 220 nM”. Besides, the Viscosity entry in data set [2] (lyophilization time 32 hr) is “Negligible”; in data set [2] (lyophilization time 40 hr), “Negligible”; in data set [2] (lyophilization time 44 hr), “Negligible”; in data set [2] (lyophilization time 54 hr) it was “Viscous”; in data set [2] (lyophilization time 59 hr) it was “Very”.
